{
  "sequences": {"note": "The chains behind the UniProt entries cited, without tags or fusion partners.", "UniProt Q1A7N1, whole entry": "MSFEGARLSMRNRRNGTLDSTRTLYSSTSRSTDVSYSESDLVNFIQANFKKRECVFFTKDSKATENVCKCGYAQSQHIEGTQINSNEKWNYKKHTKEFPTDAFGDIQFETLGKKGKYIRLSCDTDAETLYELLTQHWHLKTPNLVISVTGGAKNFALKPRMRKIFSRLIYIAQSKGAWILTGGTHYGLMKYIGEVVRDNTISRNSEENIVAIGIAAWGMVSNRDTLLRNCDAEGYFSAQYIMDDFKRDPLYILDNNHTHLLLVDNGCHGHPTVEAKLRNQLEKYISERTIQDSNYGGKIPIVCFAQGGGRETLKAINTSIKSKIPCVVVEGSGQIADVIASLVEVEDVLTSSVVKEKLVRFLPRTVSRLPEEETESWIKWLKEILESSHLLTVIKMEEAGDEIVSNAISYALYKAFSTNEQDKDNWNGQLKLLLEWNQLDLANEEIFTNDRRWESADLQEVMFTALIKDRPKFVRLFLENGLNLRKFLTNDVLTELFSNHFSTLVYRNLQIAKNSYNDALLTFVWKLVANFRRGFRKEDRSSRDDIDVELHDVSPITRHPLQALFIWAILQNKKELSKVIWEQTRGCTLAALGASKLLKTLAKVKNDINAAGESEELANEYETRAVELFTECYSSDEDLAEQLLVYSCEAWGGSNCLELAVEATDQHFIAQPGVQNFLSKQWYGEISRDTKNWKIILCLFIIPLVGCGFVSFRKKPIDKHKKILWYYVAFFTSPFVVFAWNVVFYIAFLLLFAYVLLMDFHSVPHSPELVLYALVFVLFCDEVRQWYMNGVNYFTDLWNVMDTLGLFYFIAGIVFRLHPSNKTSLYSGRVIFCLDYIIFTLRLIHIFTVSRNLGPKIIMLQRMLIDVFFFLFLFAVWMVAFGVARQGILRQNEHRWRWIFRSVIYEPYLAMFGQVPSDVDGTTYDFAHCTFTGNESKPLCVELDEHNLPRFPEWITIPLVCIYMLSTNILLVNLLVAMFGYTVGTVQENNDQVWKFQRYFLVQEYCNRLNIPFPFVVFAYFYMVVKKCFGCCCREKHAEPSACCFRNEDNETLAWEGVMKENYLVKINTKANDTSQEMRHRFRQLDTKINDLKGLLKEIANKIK"},
  "source": "ChEMBL document CHEMBL3886874",
  "about": "“Substituted aza-bicyclic imidazole derivatives useful as TRPM8 receptor modulators” (2016)",
  "target": "Transient receptor potential M8 protein (Canis lupus familiaris, UniProt Q1A7N1)",
  "test": "Functional Assay: HEK293 cells stably expressing canine TRPM8 were routinely grown as monolayers in Dulbecco's minimum essential medium supplemented with 10% FBS, 2 mM L-glutamine, 100 units/mL penicillin, 100 μg/mL streptomycin and 400 μg/mL G418. Cells were maintained in 5% CO2 at 37° C. At 24 hr prior to assay, cells were seeded in black wall, clear-base poly-D-lysine coated 384-well plates (BD Biosciences, NJ, USA) at a density of 5,000 cells per well in culture medium and grown overnight in 5% CO2 at 37° C. On assay day, growth media was removed, and cells were loaded with Calcium 3 Dye (Molecular Devices) for 35 min at 37° C., under 5% CO2 and then incubated for 25 min at room temperature and atmosphere. Subsequently, cells were tested for agonist-induced increases in intracellular Ca2+ levels using FLIPR™ or FDSS. Cells were treated with compounds of the formula (I) at varying concentrations and intracellular Ca2+ was measured for 5 min prior to the addition of icilin to each well to achieve a final concentration that produces an approximately 80% maximal response.",
  "format": "cell-based",
  "data": [
    {"smiles": "COc1nc(-c2c(Cl)cccc2Cl)cc2nc(-c3c(Cl)c(C(C)(C)C)nn3C)[nH]c12", "values": [
      {"measurement": "IC50", "result": 5.4, "unit": "nM"}
    ]}
  ]
}
